Biological target: T1, SARS-CoV-2 PLpro (PLpro(S2)) (Severe acute respiratory syndrome coronavirus 2, UniProt P0DTD1)
T1 construct: gene rep
Settings: autoproteolytic synTF with PLproCSNAT3; dose-response

With Cc1ccc(N)cc1C(=O)N[C@H](C)c1cccc2ccccc12 [GRL-0617] the “fold induction of nanoLuc over non-treated cells (highest concentration tested)” value was 40 fold.

From paper PMC8609006, “Design of modular autoproteolytic gene switches responsive to anti-coronavirus drug candidates” (Nature Communications, 2021)
